Patent publication US20260256919A1, “BIOENHANCERS” (priority 2022, published 2026)

Sequences of proteins named here, by UniProt entry; tags and fusion partners are left off.
UniProt P05177, whole entry: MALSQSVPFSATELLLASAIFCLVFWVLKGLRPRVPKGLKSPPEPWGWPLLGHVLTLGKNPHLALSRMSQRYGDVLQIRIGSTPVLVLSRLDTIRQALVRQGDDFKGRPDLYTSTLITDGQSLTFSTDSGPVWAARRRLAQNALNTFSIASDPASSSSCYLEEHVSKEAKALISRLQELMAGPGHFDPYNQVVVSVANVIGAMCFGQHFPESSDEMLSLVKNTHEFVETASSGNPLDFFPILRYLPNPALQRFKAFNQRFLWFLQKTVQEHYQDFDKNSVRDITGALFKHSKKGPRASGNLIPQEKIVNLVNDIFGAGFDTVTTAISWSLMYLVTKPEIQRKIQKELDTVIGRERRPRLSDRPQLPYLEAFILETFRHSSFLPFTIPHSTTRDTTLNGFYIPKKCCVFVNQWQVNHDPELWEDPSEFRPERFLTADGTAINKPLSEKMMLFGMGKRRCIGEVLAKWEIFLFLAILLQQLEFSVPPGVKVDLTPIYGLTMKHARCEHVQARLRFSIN

Target: CYP1A2 (Homo sapiens, UniProt P05177)
Conditions: microsomes

phenylcapsaicyn
IC50: 670 nM
